Molecular target: T1, tubulin plus microtubule-associated proteins (MAPs) from porcine brains (Sus scrofa, UniProt P02550+P02554)
T1 construct: prepared from porcine brains (freshly obtained from a local slaughter house) by two cycles of polymerization and depolymerization; from tissue; host or cells: porcine brain
Assay: In vitro tubulin polymerization assay (light scattering at 360 nm)
Type: biochemical
Description: Tubulin plus microtubule-associated proteins (MAPs) were prepared from porcine brains (freshly obtained from a local slaughter house) by two cycles of polymerization and depolymerization according to a standard protocol. […] The rate and extent of the polymerization reaction were monitored by light scattering at 360 nm using Tecan infinite M200 Pro.
All experiments were performed at least three times. Data are presented as the mean ± standard deviation. Statistical comparison between controls and different treatments were performed by an unpaired Student’s t-test. Significance was considered at p < 0.05.

Sequences of proteins named here, by UniProt entry; tags and fusion partners are left off.
UniProt P02550, whole entry: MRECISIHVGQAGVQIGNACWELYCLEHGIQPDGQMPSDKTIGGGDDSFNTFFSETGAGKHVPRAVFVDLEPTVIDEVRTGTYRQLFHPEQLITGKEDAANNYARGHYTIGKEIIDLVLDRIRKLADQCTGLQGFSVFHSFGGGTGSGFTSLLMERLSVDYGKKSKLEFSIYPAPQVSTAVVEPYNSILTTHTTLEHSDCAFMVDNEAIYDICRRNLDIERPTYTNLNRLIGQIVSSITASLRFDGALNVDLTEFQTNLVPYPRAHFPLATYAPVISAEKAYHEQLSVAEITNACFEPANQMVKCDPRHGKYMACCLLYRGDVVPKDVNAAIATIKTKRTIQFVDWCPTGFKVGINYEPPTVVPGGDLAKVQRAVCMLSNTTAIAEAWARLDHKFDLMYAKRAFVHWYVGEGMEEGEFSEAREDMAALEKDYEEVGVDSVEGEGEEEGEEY
UniProt P02554, whole entry: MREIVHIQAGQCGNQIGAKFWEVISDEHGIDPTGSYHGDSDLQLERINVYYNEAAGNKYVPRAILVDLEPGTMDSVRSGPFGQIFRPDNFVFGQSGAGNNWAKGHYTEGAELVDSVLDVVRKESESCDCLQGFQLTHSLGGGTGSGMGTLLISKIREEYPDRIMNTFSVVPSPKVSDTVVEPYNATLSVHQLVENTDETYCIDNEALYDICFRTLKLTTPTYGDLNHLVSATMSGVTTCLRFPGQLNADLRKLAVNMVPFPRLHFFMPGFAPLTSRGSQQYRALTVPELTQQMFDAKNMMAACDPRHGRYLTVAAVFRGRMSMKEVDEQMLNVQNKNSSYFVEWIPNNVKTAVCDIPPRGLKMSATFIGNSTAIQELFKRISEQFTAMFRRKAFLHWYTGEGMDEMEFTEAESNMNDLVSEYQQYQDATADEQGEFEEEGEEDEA

Row | Structure (SMILES) | effect on tubulin polymerization in vitro
1 | COc1ccc2c(c1OC)C(=O)O[C@@H]2[C@H]1c2c(cc3c(c2OC)OCO3)CCN1C [Noscapine, noscapine] | did not affect tubulin polymerization
2 | C/C1=C/C(=O)O[C@@H]2C[C@@H](CC[C@H](C)/C=C\CC1)O[C@@](O)([C@@H]1CSC(=O)N1)C2 [Latrunculin B, latrunculin B] | did not affect tubulin polymerization

— article PMC6273799, “The Interference of Selected Cytotoxic Alkaloids with the Cytoskeleton: An Insight into Their Modes of Action” (Molecules, 2016)
